Only a part is listed here, and it is no random draw. The source made the active and inactive calls. Cut-off read from the data, not from the text of the source: active = inhibition above about 9.5%; inactive = the rest.

The chains behind the UniProt entries cited, without tags or fusion partners. Where a name states a change or a piece, a line headed by the entry shows the natural chain unless it says otherwise.
UniProt P19174: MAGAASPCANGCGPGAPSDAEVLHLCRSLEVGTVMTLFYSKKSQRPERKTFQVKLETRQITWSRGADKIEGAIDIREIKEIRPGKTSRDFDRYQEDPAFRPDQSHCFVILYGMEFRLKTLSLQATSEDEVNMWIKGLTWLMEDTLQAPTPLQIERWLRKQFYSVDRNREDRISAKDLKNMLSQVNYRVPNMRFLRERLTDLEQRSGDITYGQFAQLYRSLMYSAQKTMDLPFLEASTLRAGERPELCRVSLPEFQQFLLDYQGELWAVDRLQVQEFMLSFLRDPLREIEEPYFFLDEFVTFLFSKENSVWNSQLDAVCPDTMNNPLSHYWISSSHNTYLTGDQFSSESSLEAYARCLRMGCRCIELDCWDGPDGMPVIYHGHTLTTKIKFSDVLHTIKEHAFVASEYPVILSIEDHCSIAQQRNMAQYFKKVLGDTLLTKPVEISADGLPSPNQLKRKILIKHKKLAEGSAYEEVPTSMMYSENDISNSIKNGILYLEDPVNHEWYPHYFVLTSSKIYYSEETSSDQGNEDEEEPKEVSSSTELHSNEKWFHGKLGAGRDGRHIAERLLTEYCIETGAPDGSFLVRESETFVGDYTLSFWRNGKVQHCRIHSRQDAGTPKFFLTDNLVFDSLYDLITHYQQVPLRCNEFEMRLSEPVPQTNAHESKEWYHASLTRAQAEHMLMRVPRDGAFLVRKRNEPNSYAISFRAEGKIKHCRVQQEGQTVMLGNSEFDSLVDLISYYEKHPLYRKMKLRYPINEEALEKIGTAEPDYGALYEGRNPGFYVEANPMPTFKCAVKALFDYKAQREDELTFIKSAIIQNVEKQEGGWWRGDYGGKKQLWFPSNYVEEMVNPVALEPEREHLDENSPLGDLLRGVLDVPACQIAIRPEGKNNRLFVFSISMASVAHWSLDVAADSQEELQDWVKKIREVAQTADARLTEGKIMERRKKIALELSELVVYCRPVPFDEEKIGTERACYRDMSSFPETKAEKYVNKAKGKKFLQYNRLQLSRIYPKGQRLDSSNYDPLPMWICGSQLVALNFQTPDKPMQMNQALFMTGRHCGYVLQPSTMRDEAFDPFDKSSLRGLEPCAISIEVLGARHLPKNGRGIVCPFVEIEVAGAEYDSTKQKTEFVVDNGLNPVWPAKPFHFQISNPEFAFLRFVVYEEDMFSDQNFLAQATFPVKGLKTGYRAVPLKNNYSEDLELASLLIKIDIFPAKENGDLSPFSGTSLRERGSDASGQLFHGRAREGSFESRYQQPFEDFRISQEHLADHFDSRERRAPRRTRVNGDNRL

For this experiment, the target named is 1-phosphatidylinositol 4,5-bisphosphate phosphodiesterase gamma-1 (Homo sapiens) (UniProt P19174). The experiment can be described thus: PLC-gamma1 enzyme inhibitors, primary screen, biochemical, fluorescence, purified enzyme (AID 720700). The conditions noted are these: purified PLC-gamma1, fluorogenic substrate, at 12.2 µM, stronger effect = higher value.
Take `CCOP1(=S)c2c(C)nn(CCC#N)c2N=C(c2ccccc2F)N1C` (stereo not given): the inhibition is inactive: -0.87%.
In the case of `CCOP1(=S)c2c(C)nn(CCC#N)c2N=C(c2ccc(F)cc2)N1C` (stereo not given) it was inactive: -2.04%.
In the case of `CN(C(=O)Cc1ccccc1)[C@@H]1CC[C@]2(CCCO2)C[C@H]1N1CCCC1` it was inactive: -0.64%; in that of `N#CCCN(C(=O)COC(=O)C(O)(c1ccccc1)c1ccccc1)c1ccc(F)cc1`, inactive: 0.43%; in that of `CN(C(=O)Cc1ccc(Cl)c(Cl)c1)[C@H]1CC[C@@]2(CCCO2)C[C@@H]1N1CCCC1`, inactive: 0.88%.
Take `CN(C)C(=O)c1cc([N+](=O)[O-])cc2c1-c1c(cc([N+](=O)[O-])cc1[N+](=O)[O-])C2=O`: the inhibition was inactive: 3.83%.
Take `O=[N+]([O-])c1ccc2c(c1)nnn2O`: the inhibition is inactive: -0.28%.
In the case of `NC(=O)Nc1ccc([As](=O)(O)O)cc1` it was inactive: 1.61%.
In the case of `O=[As](O)(c1cccc(O)c1)c1cccc(O)c1` it was inactive: 1.65%; in that of `Cc1cccc(OCC(=O)OC2CN3CCC2CC3)c1` (stereo not given), inactive: 2.83%; in that of `O=C(OC1CN2CCC1CC2)c1ccc(Cl)cc1` (stereo not given), inactive: 3.6%.
In the case of `CS(=O)(=O)c1ccc(Cl)c(NC(=O)COC(=O)C(O)(c2ccccc2)c2ccccc2)c1` it was inactive: 4.66%; in that of `COc1cc(C(=O)NCC2(N3CCOCC3)CCCCC2)cc(Cl)c1OC(C)C`, inactive: 2.68%; in that of `O=[As](O)(O)c1cccnc1`, inactive: 0.66%.
As to `CCOP(=O)(Nc1cccc2ccccc12)OCC`, the inhibition was inactive: -3.61%.
In the case of `COc1cc(C2NCCC3(OCCO3)C2(C)C)cc(OC)c1OC` (stereo not given) it was inactive: 2.51%; in that of `Nc1cccc2c([As](=O)(O)O)cccc12`, inactive: -151%; in that of `Cc1ccc(NCCc2c([N+](=O)[O-])cc([N+](=O)[O-])cc2[N+](=O)[O-])cc1`, inactive: 1.97%.
Take `CCCOP(=S)(Nc1nc(N)cc(=O)[nH]1)OCCC`: the inhibition is inactive: 6.98%.
Turning to `CC(C)(C)C(=O)NC(Sc1ncccn1)C(Cl)(Cl)Cl` (stereo not given), the inhibition is inactive: 2%.
In the case of `Clc1n[nH]nc1-c1nn[nH][15n]1` it was inactive: 5.53%.
In the case of `O=P1(N(CCCl)CCCl)NCCC(C(F)(F)F)O1` (stereo not given) it was inactive: 3.58%; in that of `CCOP(=O)(NC(=NC(C)c1ccccc1)NC(C)c1ccccc1)OCC` (stereo not given), inactive: -1.77%; in that of `CCC1=CC2Cc3nc4ccc(Cl)cc4c(N)c3C(C1)C2` (stereo not given), inactive: -4.45%.
In the case of `O=P1(Nc2ccccn2)COc2ccccc2OC1` it was inactive: 0.96%; in that of `CN(CCCl)Cc1cc(Cl)c(NC2=NCCN2)c(Cl)c1`, inactive: -0.33%; in that of `CCOP(=O)(Nc1ccc(C)cn1)OCC`, inactive: -1.08%.
For the compound `CN(C(=O)Cc1ccc(Cl)c(Cl)c1)C1CCCC[C@@H]1N1CCCC1` (stereo not given in full), the inhibition is inactive: 3.24%.
In the case of `CN(C(=O)Cc1ccc(Cl)c(Cl)c1)[C@@H]1CCCC[C@H]1N1CCCC1` it was inactive: 0.09%; in that of `CC(C)/C=N\N=C(\N)N[N+](=O)[O-]`, inactive: 0.44%.
With `CC1(CBr)Cn2c(nc3ccccc3c2=O)S1` (stereo not given), the inhibition is inactive: -0.72%.
In the case of `COc1ccccc1CNC(=O)COC(=O)C(O)(c1ccccc1)c1ccccc1` it was inactive: 3.19%; in that of `CN(C)C1(CNC(=O)c2ccc(S(C)(=O)=O)cc2)CCCCC1`, inactive: 0.28%; in that of `CCCC1OP(=O)(Nc2ccccc2)OCC1CC` (stereo not given), inactive: 3.58%.
On to `O=C(/C=C/c1ccccc1)OC1CN2CCC1CC2` (stereo not given), for which the inhibition was inactive: 2%.
In the case of `Cc1ccc(C(=O)OC2CN3CCC2CC3)cc1` (stereo not given) it was inactive: -0.97%; in that of `CC1CCC(C(C)C)C(OP(=O)(Nc2ccccn2)c2ccccc2)C1` (stereo not given), inactive: 2.32%.
Regarding `Cc1nn(-c2ccccc2)c2c1P(=O)(N1CCOCC1)N(C)C(c1ccccc1)=N2` (stereo not given), the inhibition is inactive: 0.43%.
For `Nc1cccc([As](=O)(O)c2ccccc2)c1`, the inhibition was inactive: 5.14%.
In the case of `NS(=O)(=O)c1cccc(NC(=O)COC(=O)C(O)(c2ccccc2)c2ccccc2)c1` it was inactive: 3.56%.
With `O=P1(Nc2ccc(Br)cn2)COc2ccccc2OC1`, the inhibition was inactive: 2.99%.
In the case of `O=[As](O)(c1cccs1)c1cccs1` it was inactive: -0.49%; in that of `Cc1ccc(OCC(=O)OC2CN3CCC2CC3)cc1` (stereo not given), inactive: 1.47%.
In the case of `Cc1ccc(S(=O)(=O)N(CCCN)CCCc2c(C)nc(N)[nH]c2=O)cc1` it was inactive: 3.46%.
As for `O=P1(Nc2ncccn2)COc2ccccc2OC1`, the inhibition is inactive: -0.69%.

For the origin of these results see PubChem BioAssay AID720700 (The Scripps Research Institute Molecular Screening Center, 2013).
